Assay outcomes (PubChem)
MC4R antagonist = MC4R antagonists of cAMP signaling, primary screen, cell-based, TR-FRET, antagonist arm of biased-ligand search; Melanocortin receptor 4 (Homo sapiens), P32245; MC4R-expressing cells, MTII-stimulated cAMP, LANCE TR-FRET; inhibition, % at 6.5 µM; 360,000 tested, 0.48% active;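 active means inhibition above its plate's cutoff, the mean of tested wells on that plate plus 3 SD, cut at about 29% in these data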;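 further: 0% = Melanotan II alone and 100% = Melanotan II plus saturating MCL0020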
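Assay system: human MC4R-expressing U2OS cells; reagent: Melanotan II stimulation of cells; dosing: 6.5 µM single dose; timing: compound 30 min, challenge 1 h, detection 1 h; signal: TR-FRET cAMP assay; replicates: one well per compound, no replicates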
Yeast UUG start = modulators of yeast start codon fidelity, primary screen, whole organism, S. cerevisiae, single point, plate reader | AID 602363, 2012 | actives 0.13% (n = 350,000) | activity score, % at 18.7 µM | S. cerevisiae UUG-firefly luciferase reporter, luminescence/redox ratio;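 active means replicate mean at a twofold rise or more, about +100% in these data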;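 further: firefly luciferase made from a UUG start codon reports start codon fidelity; reporter light over untreated wells divided by growth signal over untreated wells; some hits fall short of that in this replicate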
ASAP1 GAP inh = inhibitors of human ASAP1 ArfGAP activity, primary screen, biochemical, fluorescence polarization; Arf-GAP with SH3 domain, ANK repeat and PH domain-containing protein 1 (Homo sapiens), …; ASAP1-stimulated ARF1 GTP hydrolysis, GDP FP detection; inhibition, % at 16.5 µM; 360,000 tested, 0.19% active; AID 624377, 2012; in the data active means inhibition above about 25%;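 further: 0% = vehicle with enzyme and substrate and 100% = no enzyme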
MC4R ag barr = MC4R agonists recruiting beta-arrestin, primary screen, cell-based, luminescence, agonist arm of biased-ligand search. activation, % at 8.9 µM. U2OS MC4R beta-arrestin complementation; percent of melanotan II response, DMSO zero. AID 540308, 2011. 360,000 tested, 0.98% active. Melanocortin receptor 4 (Homo sapiens), P32245;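 active means activation above a per-plate cutoff, the mean activation of sample wells on that plate plus 3 SD, cut at about 8% in these data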
NRP1-CendR mod = modulators of CendR peptide binding to NRP-1, primary screen, biochemical, fluorescence polarization, uHTS; FAM-RPARPAR peptide binding to NRP-1; Neuropilin-1 (Homo sapiens), O14786; AID 602438, 2012; 360,000 tested, 0.85% active; inhibition, % at 25 µM;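 active means inhibition or corrected inhibition above about 18%, plus a signal ratio from 0.5 to 1.5, limit read from the data, passing the limit was not always enough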
ARFGAP1 inhibitor = inhibitors of rat ARFGAP1 GAP activity, primary screen, biochemical, fluorescence polarization, GDP tracer | ADP-ribosylation factor GTPase-activating protein 1 (Rattus norvegicus), Q62848 | Arfgap1-stimulated ARF1 GTP hydrolysis, GDP FP detection | inhibition, % at 16.5 µM | 360,000 tested, 0.26% active | AID 651572, 2012;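 active means inhibition above a per-plate limit, mean inhibition of low control wells plus 3 SD, cut at about 25% in these data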;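 further: 0% = DMSO wells with enzyme and 100% = wells lacking Arfgap1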
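Replicates: Single well per compound | Assay system: Truncated rat Arfgap1 GAP domain | Control set: No-Arfgap1 wells (100%) versus DMSO full-reaction wells (0%) | Times: Enzyme reaction 120 min at 25 °C after 20 min preincubation | Reagent: Human ARF1(Δ1-17)-GTP substrate | Measured by: Tracer-displacement fluorescence polarization with EDTA stop, 620/688 nm | Measure: Percent inhibition of Arfgap1-stimulated GTP hydrolysis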
* marks the source's active call; other numbers are inactive results. The list is not random: actives were taken first. Their share in the collection is about 2.3%.

Sequences of proteins named here, by UniProt entry; tags and fusion partners are left off. Residues count along the entry.
Melanocortin receptor 4 (Homo sapiens), P32245, UniProt P32245, whole entry, looked up: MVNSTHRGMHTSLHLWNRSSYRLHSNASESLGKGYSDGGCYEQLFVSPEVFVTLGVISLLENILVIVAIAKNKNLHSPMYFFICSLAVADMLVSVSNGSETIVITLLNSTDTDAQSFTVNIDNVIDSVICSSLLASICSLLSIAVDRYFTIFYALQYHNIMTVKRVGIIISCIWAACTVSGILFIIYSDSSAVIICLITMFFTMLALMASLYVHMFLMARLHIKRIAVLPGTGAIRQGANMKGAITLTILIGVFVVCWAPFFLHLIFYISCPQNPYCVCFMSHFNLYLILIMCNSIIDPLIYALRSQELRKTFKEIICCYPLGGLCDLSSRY
Neuropilin-1 (Homo sapiens), O14786, UniProt O14786, whole entry, looked up: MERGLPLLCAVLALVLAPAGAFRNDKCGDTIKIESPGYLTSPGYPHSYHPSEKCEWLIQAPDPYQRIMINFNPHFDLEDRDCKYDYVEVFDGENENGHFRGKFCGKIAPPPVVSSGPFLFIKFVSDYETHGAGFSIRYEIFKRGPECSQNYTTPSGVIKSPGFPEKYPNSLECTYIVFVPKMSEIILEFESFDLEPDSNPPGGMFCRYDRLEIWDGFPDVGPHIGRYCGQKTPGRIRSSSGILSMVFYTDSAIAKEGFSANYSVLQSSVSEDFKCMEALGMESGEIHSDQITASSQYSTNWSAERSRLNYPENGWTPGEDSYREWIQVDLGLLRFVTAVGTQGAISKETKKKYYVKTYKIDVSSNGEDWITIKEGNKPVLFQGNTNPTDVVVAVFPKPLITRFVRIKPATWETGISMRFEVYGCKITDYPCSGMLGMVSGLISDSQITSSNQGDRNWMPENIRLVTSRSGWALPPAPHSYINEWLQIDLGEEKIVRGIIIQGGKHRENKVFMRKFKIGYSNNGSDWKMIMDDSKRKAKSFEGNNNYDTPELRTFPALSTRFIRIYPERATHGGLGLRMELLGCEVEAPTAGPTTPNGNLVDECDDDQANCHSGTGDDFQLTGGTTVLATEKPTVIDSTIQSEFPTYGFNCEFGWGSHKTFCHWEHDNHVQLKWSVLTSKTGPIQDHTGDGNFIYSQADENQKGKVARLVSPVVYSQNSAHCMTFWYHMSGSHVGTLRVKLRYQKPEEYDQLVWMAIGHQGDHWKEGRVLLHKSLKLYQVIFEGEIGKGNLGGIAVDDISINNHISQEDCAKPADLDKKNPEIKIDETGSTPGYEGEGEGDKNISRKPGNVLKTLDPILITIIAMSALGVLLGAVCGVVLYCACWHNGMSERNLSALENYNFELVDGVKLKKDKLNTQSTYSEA
ADP-ribosylation factor GTPase-activating protein 1 (Rattus norvegicus), Q62848, UniProt Q62848, whole entry, looked up: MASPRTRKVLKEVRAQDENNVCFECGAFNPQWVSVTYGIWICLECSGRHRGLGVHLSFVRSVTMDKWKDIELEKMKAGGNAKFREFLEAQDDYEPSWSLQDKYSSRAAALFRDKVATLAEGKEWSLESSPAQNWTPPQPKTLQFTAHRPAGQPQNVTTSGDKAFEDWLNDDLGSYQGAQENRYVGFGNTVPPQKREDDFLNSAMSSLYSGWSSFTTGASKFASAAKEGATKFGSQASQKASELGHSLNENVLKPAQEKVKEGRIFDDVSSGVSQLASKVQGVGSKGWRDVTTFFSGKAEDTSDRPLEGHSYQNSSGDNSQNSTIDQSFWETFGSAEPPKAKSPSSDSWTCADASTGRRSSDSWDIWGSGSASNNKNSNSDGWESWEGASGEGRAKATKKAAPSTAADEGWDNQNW
ADP-ribosylation factor GTPase-activating protein 1 (Rattus norvegicus), Q62848, UniProt Q62848, 1-136 limits assumed: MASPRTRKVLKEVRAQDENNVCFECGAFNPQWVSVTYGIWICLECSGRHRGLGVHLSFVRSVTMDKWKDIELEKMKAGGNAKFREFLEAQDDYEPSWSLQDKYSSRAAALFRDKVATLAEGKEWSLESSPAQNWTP

Screening Cc1ccc(-n2nnnc2-c2nc3ccccc3s2)cc1 returned MC4R antagonist 12.2, ASAP1 GAP inh -15.8, MC4R ag barr 8.7*, NRP1-CendR mod 2.5 and ARFGAP1 inhibitor 10.6.
Screening CCOc1ccc(-n2nnnc2-c2nc3ccccc3s2)cc1 returned MC4R antagonist -0.4, ASAP1 GAP inh 6.2, MC4R ag barr 0.9, NRP1-CendR mod -9.3 and ARFGAP1 inhibitor -7.6.
COCC(C)n1c(C)cc(C(=O)COC(=O)c2ccc3c(c2)NC(=O)CS3)c1C (centres undefined) was read as MC4R antagonist 5.1, Yeast UUG start 2.7, ASAP1 GAP inh 1.0, MC4R ag barr 1.8, NRP1-CendR mod 29.9* and ARFGAP1 inhibitor -4.2.
CC(=O)N(C)C[C@@H]1Oc2ncc(C#CC3(O)CCCC3)cc2C(=O)N([C@H](C)CO)C[C@@H]1C was read as Yeast UUG start 1.3.
`O=C(NCCCn1ccnc1)c1ccc(S(=O)(=O)N2CCOCC2)cc1` gave MC4R antagonist -2.9, Yeast UUG start -20.7, ASAP1 GAP inh -6.8, MC4R ag barr -1.8, NRP1-CendR mod 13.1 and ARFGAP1 inhibitor 13.4.
O=C(NCCCn1ccnc1)c1ccc(Cl)c(S(=O)(=O)N2CCOCC2)c1 was read as MC4R antagonist -0.1, Yeast UUG start -6.7, ASAP1 GAP inh -9.0, MC4R ag barr 1.1, NRP1-CendR mod 35.0* and ARFGAP1 inhibitor -6.4.
For CN(C)CC(=O)N[C@@H]1CC[C@@H](CCn2cc(C3CCCCC3)nn2)O[C@@H]1CO the results were Yeast UUG start -19.5.
For CSCC[C@H](NC(=O)OC(C)(C)C)c1nnc(SCc2cccc(F)c2)o1 the results were MC4R antagonist 5.7, Yeast UUG start -6.0, ASAP1 GAP inh 5.6, MC4R ag barr -1.9, NRP1-CendR mod -8.2 and ARFGAP1 inhibitor -9.2.
`CC(C)C[C@H](NC(=O)OC(C)(C)C)c1nnc(SCc2cccc(F)c2)o1` gave MC4R antagonist 0.2, Yeast UUG start -0.9, ASAP1 GAP inh 6.6, MC4R ag barr 1.3, NRP1-CendR mod 44.2* and ARFGAP1 inhibitor 7.2.
CC(C)C[C@H](NC(=O)OC(C)(C)C)c1nnc(SCC(=O)Nc2ccc(Br)cc2)o1 was read as MC4R antagonist 2.2, Yeast UUG start 6.1, ASAP1 GAP inh 2.6, MC4R ag barr 8.3*, NRP1-CendR mod -6.5 and ARFGAP1 inhibitor 12.4.
For Cc1c(C(=O)N/N=C/c2ccccc2)sc(=S)n1C the results were MC4R antagonist 12.9, Yeast UUG start -21.2, ASAP1 GAP inh -0.8, MC4R ag barr 0.7, NRP1-CendR mod 2.3 and ARFGAP1 inhibitor 25.8*.
Screening Cc1c(C(=O)N/N=C/c2ccc(O)cc2)sc(=S)n1C returned MC4R antagonist -4.0, ASAP1 GAP inh 14.8, MC4R ag barr -0.3, NRP1-CendR mod 10.6 and ARFGAP1 inhibitor 23.8.

Already shown: 2 of the compounds above.
For Cc1c(C(=O)N/N=C/c2ccccc2)sc(=S)n1C the results were MC4R antagonist 12.9, Yeast UUG start -21.2, ASAP1 GAP inh -0.8, MC4R ag barr 0.7, NRP1-CendR mod 2.3 and ARFGAP1 inhibitor 25.8*.
Screening Cc1c(C(=O)N/N=C/c2ccc(O)cc2)sc(=S)n1C returned MC4R antagonist -4.0, ASAP1 GAP inh 14.8, MC4R ag barr -0.3, NRP1-CendR mod 10.6 and ARFGAP1 inhibitor 23.8.

Additional compounds:
For CCS(=O)(=O)Nc1ccc2c(c1)C(=O)N(C)[C@H]1CC[C@@H](CC(=O)N3CCOCC3)O[C@@H]1CO2 the results were Yeast UUG start -2.0.
For Cc1noc(C)c1S(=O)(=O)Nc1ccc2c(c1)C(=O)N([C@H](C)CO)C[C@@H](C)[C@@H](CN(C)C(=O)Nc1ccc3c(c1)OCO3)O2 the results were Yeast UUG start 4.0.
Screening CC(Oc1ccc(Cl)cc1Cl)C(=O)Nc1ccncc1 (centres undefined) returned MC4R antagonist 8.8, Yeast UUG start 1.8, ASAP1 GAP inh 1.6, MC4R ag barr 0.2, NRP1-CendR mod -3.6 and ARFGAP1 inhibitor -7.8.
CC(Oc1ccc(Cl)cc1Cl)C(=O)Nc1cccnc1 (centres undefined) was read as MC4R antagonist -0.9, Yeast UUG start -20.6, ASAP1 GAP inh -6.7, MC4R ag barr -2.2, NRP1-CendR mod 26.2* and ARFGAP1 inhibitor -10.6.
